{"source": "patent US20220002429A1", "about": "“TUMOR CELL AGGREGATION INHIBITORS' FOR TREATING CANCER” (Northwestern University, priority 2018, published 2022)", "tested_on": "TN1 PDX tumor cells", "test": "ex vivo aggregation (clustering) assay of dissociated PDX tumor cells, IncuCyte time-lapse imaging", "assay_type": "cell-based, human", "details": "neutralizing antibodies; IgG vs anti-EGFR, mab EGFR vs Cetuximab", "experimental": "Hyaluronan inhibition. Two complementary approaches were utilized to inhibit hyaluronan, the known CD44 ligand, in the two models. First, for the TN PDX model, dissociated cells were treated with hyaluronan antagonist (o-HA, HA oligomers) at 100 μg/mL during the 72-hour aggregation assays. For MDA-MB-231 cells, the hyaluronic acid synthase inhibitor 4-methylumbelliferone (4-MU, 0.4 mM/L) was added to the adherent culture. After 48 h of treatment, the cells were trypsinized and transferred to a poly-hydroxyethyl methacrylate (Poly-HEMA, Sigma-Aldrich) coated plate, and the images were taken at the indicated times by Leica microscopy.\nCell clustering assay. Freshly dissociated primary tumor cells in single cell suspension were seeded in collagen type I-coated 96-well plates. The plates were put into the IncuCyte live cell imaging system (Essen BioScience), and live images were taken every 2-4 h for up to one week. The cluster number and size were analyzed by Incucyte ZOOM software (Essen BioScience). In specific experiments, primary tumor cells might be sorted based on the expression of CD44 prior to seeding. In other experiments, seeded tumor cells might be transfected with siRNAs (100 nM) or treated with various inhibitors during the clustering assays. […]\nCell clustering assay. […] The cluster number and size were analyzed by Incucyte ZOOM software (Essen BioScience). […]"}
{"substance": "Cetuximab: FDA approved EGFR monoclonal antibody", "values": [{"measurement": "clustering formation of TN PDX tumor cells", "value": "instead of Cetuximab"}]}
